This is an account of results in publication PMC11904993, “Humanized Candida and NanoBiT Assays Expedite Discovery of Bdf1 Bromodomain Inhibitors With Antifungal Potential” (Advanced Science, 2025).

Several values for one entry are separate records, joined by “and”; a condition that tells them apart may be missing. Equal values may be shown once. Read-outs that look alike come from different tables or passages of the source.

One experiment deals with human Brd4 BD2 (Homo sapiens, UniProt O60885). As to the kind of experiment: HTRF assay, inhibition of H4ac4 peptide binding. The settings on record: for pIC50 hBrd4 BD2: Fig 1D/2A original data, single experiments Exp1-3; for %HTRF Signal: Exp1-3, listed as cmpd 29.
The next experiment deals with human Brd4 BD1 (Homo sapiens, UniProt O60885). Description: HTRF assay, inhibition of H4ac4 peptide binding. The conditions noted are these: for pIC50 hBrd4 BD1: Fig 1D/2A original data, single experiments Exp1-3. (In general: Time-resolved FRET reads energy transfer from a long-lived donor to a nearby acceptor.)
Where [1] appears, read: read-out: IC50 Brd4 BD2, Table S3, estimate, preliminary single-replicate HTRF assay.
[2] abbreviates: read-out: IC50 Brd4 BD1, Table S3, estimate, preliminary single-replicate HTRF assay.
Where [3] appears, read: hBrd4 BD2, individual experiments Exp1-3, Table S4.
Setting [4] is: hBrd4 BD1, individual experiments Exp1-3, Table S4.
Where [5] appears, read: read-out: IC50 hBrd4 BD2, Table S4, means ± SD, n=3.

In the case of `COc1ccc(-c2nc3cnccn3c2Nc2ccc(Br)cc2)cc1OC`, the concentration for half-maximal inhibition (IC50) on human Brd4 BD2 (setting [1]) was above 20 µM; on human Brd4 BD1 (setting [2]) it was 12 µM.
`CCC(=O)Nc1ccc(CCc2nc3ccc(C(=O)NCc4ccc(C)o4)cc3[nH]2)cc1`: on human Brd4 BD1 (setting [2]), the IC50 is above 20 µM.
For `CC(=O)c1cccc(NC(=O)Cn2cccc2-c2nc(-c3ccc4c(c3)OCO4)no2)c1`, the concentration for half-maximal inhibition (IC50) at human Brd4 BD1 (setting [2]) was above 20 µM.
Consider `COCCN1C(=O)c2ccccc2C(C(=O)Nc2cccc(NC(C)=O)c2)C12CCCCC2` (centres unmarked), for which the IC50 on human Brd4 BD2 (setting [1]) and on human Brd4 BD1 (setting [2]) was above 20 µM each time.
Regarding `Cc1nnc(-c2ccc3ccn(CC(=O)Nc4cccc(Cl)c4)c3c2)o1`, the IC50 at human Brd4 BD1 (setting [2]) was above 20 µM.
Consider `CCc1nn2c(CNC(=O)c3cccc(OC)c3)c(-c3ccccc3)nc2s1`, for which the 50% inhibitory concentration (IC50) at human Brd4 BD2 (setting [1]) is above 20 µM.
As to `CC(=O)Nc1ccc(CCc2nc3ccc(C(=O)NCc4ccc5c(c4)OCO5)cc3[nH]2)cc1`, the IC50 on human Brd4 BD2 (setting [1]) and at human Brd4 BD1 (setting [2]) was above 20 µM in each case.
For the compound `CCCN(CC1CC1)C(=O)C1C(c2cc(OC)c(OC)c(OC)c2)c2cc3c(cc2C(O)C1CO)OCO3` (centres unmarked), the IC50 on human Brd4 BD2 (setting [3]) and at human Brd4 BD1 (setting [4]) was above 20 µM each time. Further, the “pIC50 hBrd4 BD1” value on human Brd4 BD1 is at most 4.
`CCC(C)NC(=O)Nc1cc2c(cc1Oc1ccccc1)n(C)c(=O)n2C` (centres unmarked): the “pIC50 hBrd4 BD2” value at human Brd4 BD2 was 5.551 and 5.450 and 5.614. In addition, the IC50 was 2.81 µM and 3.55 µM and 2.43 µM at human Brd4 BD2 (setting [3]); 2.8 µM on human Brd4 BD2 (setting [1]); 2.93 µM on human Brd4 BD2 (setting [5]); 20 µM and 19.3 µM and 25.9 µM on human Brd4 BD1 (setting [4]); 13 µM at human Brd4 BD1 (setting [2]). The “pIC50 hBrd4 BD1” value on human Brd4 BD1 was 4.586 and 4.698 and 4.714.
With `COc1nccnc1NC1CCN(C(=O)c2ccncc2)CC1`, the half-maximal inhibitory concentration (IC50) on human Brd4 BD2 (setting [1]) was above 20 µM.
Regarding `COc1cccc(NC(=O)Cn2ccc3ccc(-c4nnc(C)o4)cc32)c1`, the IC50 on human Brd4 BD2 (setting [3]) is above 20 µM; on human Brd4 BD1 (setting [4]), 31.7 µM and > 100 µM (2×); on human Brd4 BD1 (setting [2]), above 20 µM.
`CC(=O)Nc1ccc(CCc2nc3ccc(C(=O)NCc4ccc(C)o4)cc3[nH]2)cc1`: the 50% inhibitory concentration (IC50) at human Brd4 BD1 (setting [2]) was above 20 µM.
As for `CC(=O)Nc1ccc(Cc2nc(-c3cccc(-c4ccn[nH]4)c3)no2)cc1`, the concentration for half-maximal inhibition (IC50) at human Brd4 BD1 (setting [2]) is above 20 µM.
For the compound `COC(=O)c1ccc(NC(=O)C2CC(=O)N(c3ccc4c(c3)CCN4C(C)=O)C2)cc1` (centres unmarked), the IC50 on human Brd4 BD2 (setting [3]) was above 20 µM; on human Brd4 BD1 (setting [4]), above 100 µM; at human Brd4 BD1 (setting [2]) it was above 20 µM. On human Brd4 BD1, the “pIC50 hBrd4 BD1” value is at most 4.
On to `COC(=O)c1ccccc1Nc1c(-c2ccc(O)cc2)nc2cnccn12`, for which the IC50 on human Brd4 BD2 (setting [1]) and on human Brd4 BD1 (setting [2]) was above 20 µM each time.
Take `COc1cc2nc(C(=O)N3CCCCC3)cc(Nc3ccc(Br)cc3)c2cc1OC`: the 50% inhibitory concentration (IC50) on human Brd4 BD2 (setting [3]) is 21.8 µM and > 100 µM and 14.1 µM; on human Brd4 BD2 (setting [1]), above 20 µM; on human Brd4 BD1 (setting [4]) it was above 100 µM; on human Brd4 BD1 (setting [2]), above 20 µM.
For the compound `CC(=O)N1CCc2[nH]c3ccc(C(=O)Nc4ccc(N5CCOCC5)cc4)cc3c2C1`, the “pIC50 hBrd4 BD2” value at human Brd4 BD2 is 6.360 and 6.127 and 6.425. Moreover, the “%HTRF Signal” value at human Brd4 BD2 (hBrd4 BD2, compound 32.77 nM) was 92.24% and 93.64%; at human Brd4 BD2 (hBrd4 BD2, compound 81.92 nM), 72.83% and 79.06% and 86.06%; on human Brd4 BD2 (hBrd4 BD2, compound 512 nM) it was 58.18% and 33.79% and 37.53%; on human Brd4 BD1 (hBrd4 BD1, compound 512 nM, Exp1-3, listed as cmpd 29), 81.99% and 82.87% and 83.51%. Also, the IC50 on human Brd4 BD2 (setting [3]) was 0.75 µM and 0.38 µM; on human Brd4 BD2 (setting [5]) it was 0.52 µM; at human Brd4 BD1 (setting [4]), 2.94 µM and 2.33 µM and 2.91 µM. Moreover, at human Brd4 BD1, the “pIC50 hBrd4 BD1” value is 5.537 and 5.532 and 5.633.
As for `Cn1nccc1C(=O)NCc1ccc(-c2nc(-c3ccc(F)cc3)no2)s1`, the IC50 on human Brd4 BD2 (setting [1]) and at human Brd4 BD1 (setting [2]) was above 20 µM throughout.

For orientation: IC50 means the midpoint of a concentration-inhibition curve.
